Experimental data published in US6096909A, “Taxoid anti-tumor agents and pharmaceutical compositions thereof” (The Research Foundation of State University of New York, priority 1997, dated 2000).

Tests used:
[1] = system: MCF7-R (mammary carcinoma cells 180-fold resistant to adriamycin); assay: Tumor cell growth inhibition (SRB), 72 h; format: cell-based, human
[2] = system: multi-drug resistant phenotype human colon carcinoma cells HCT-116/VM; settings: cited from earlier work

Question: What does the source list for `CC(=O)O[C@H]1C(=O)[C@@]2(C)[C@H]([C@H](OC(=O)c3ccccc3)[C@]3(O)C[C@H](OC(=O)[C@H](O)[C@H](C=C(C)C)NC(=O)c4ccccc4)C(C)=C1C3(C)C)[C@]1(OC(C)=O)CO[C@@H]1C[C@@H]2O` [RAH-1, 3'-dephenyl-3'-isobutenylpaclitaxel]?
Answer: activity ([1]; in words): only marginal activity; IC50 ([1]; read-out: concentration of compound which inhibit 50% (IC50) of the growth of human tumor cell line, 72 h drug exposure, mean of at least three experiments): 113 nM; activity compared with Taxoid Ia ([1]; relative to Taxoid Ia): one order of magnitude weaker; times better activity than docetaxel ([2]; relative to docetaxel): 9 times; times better activity than paclitaxel ([2]; relative to paclitaxel): about 20 times
